The list shows a part of the results, in another mix than the full data. Some tests of the compounds listed are not included; inactive here does not mean inactive elsewhere. Activity calls are given as the source filed them.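 How the source made its calls: active means activation factor of at least 2 at 20 µM, relative to controls; inactive means the rest.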
molecular target: Alkaline phosphatase, tissue-nonspecific isozyme (Homo sapiens) (UniProt P05186); assay: stimulation of alkaline phosphatase TNAP activity – biochemical, luminescent, intermediate phosphate acceptor level, primary screen (AID 813); conditions: purified TNAP, CDP-star luminescence, 100 mM DEA, 30 min; at 20 µM; hits give high values; scale: 0 levamisole-inhibited, 1 vehicle-only enzyme

Chains of the proteins cited; added tags and fusions are not shown.
UniProt P05186, whole entry: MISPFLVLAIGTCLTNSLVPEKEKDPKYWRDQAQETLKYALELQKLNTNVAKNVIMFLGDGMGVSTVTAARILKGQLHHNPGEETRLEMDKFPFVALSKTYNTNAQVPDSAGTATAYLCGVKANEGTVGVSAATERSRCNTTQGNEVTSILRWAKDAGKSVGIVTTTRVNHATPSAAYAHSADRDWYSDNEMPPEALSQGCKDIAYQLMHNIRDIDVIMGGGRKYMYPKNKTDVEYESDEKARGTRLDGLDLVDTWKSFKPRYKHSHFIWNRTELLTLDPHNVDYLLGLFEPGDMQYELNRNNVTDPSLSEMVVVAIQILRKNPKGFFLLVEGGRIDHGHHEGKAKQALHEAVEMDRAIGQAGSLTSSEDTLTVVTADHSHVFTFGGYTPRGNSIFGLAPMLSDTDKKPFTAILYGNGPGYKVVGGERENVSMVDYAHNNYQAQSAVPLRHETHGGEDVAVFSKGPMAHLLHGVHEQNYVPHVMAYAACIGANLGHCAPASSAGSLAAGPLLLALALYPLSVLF

Row | Structure (SMILES) | activation factor
1 | O=C(OC1CN2CCC1CC2)C(CO)(c1ccccc1)c1ccccc1 (configuration not stated) | inactive: 1
2 | CN(C)c1cccc(C(=O)NCC2(N(C)C)CCCCC2)c1 | inactive: 1
